Source: US4382892A, “Benzoxazine derivatives” (Daiichi Seiyaku Co., Ltd., priority 1980, dated 1983)

Test: in vivo
Conditions: mouse, iv

With CCn1cc(C(=O)O)c(=O)c2cnc(N3CCNCC3)nc21 [PPA, 8-ethyl-5,8-dihydro-5-oxo-2-(1-piperazinyl)-pyrido[2,3-d]pyrimidine-6-carboxylic acid, reference compound] the LD50 was 610 to 649 mg/kg.
